Measured values from ChEMBL document CHEMBL2169863, “Discovery, structure-activity relationship, and biological evaluation of noninhibitory small molecule chaperones of glucocerebrosidase” (J Med Chem, 2012).

Sequences of proteins named here, by UniProt entry; tags and fusion partners are left off. Residues count along the entry.
UniProt P04062, 40-536 N409S limits assumed: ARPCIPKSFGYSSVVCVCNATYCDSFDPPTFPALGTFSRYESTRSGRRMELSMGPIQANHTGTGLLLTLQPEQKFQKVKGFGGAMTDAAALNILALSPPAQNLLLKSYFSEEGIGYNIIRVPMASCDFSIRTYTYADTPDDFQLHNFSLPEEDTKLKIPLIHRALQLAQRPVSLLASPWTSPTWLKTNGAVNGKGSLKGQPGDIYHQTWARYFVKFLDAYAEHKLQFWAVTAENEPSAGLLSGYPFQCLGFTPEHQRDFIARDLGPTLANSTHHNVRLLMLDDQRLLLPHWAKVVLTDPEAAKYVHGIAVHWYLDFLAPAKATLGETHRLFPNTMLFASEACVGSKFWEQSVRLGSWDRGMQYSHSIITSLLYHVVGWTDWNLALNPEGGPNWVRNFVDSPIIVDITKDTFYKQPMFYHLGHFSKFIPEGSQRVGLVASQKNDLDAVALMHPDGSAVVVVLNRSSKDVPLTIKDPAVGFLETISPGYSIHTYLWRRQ

Experiments:
[1] = target: Lysosomal acid glucosylceramidase (Homo sapiens, UniProt P04062, N409S); test: Inhibition of glucocerebrosidase N370S mutant using 4-methylumbellifereno-Glc as substrate incubated for 5 mins prior to substrate addition measured after 20 mins by fluorimetric analysis
[2] = target: T1, Lysosomal acid glucosylceramidase (Homo sapiens, UniProt P04062); test: Inhibition of wild type glucocerebrosidase using 4-methylumbellifereno-Glc as substrate incubated for 5 mins prior to substrate addition measured after 20 mins by fluorimetric analysis
T1 sequence (P04062 whole entry): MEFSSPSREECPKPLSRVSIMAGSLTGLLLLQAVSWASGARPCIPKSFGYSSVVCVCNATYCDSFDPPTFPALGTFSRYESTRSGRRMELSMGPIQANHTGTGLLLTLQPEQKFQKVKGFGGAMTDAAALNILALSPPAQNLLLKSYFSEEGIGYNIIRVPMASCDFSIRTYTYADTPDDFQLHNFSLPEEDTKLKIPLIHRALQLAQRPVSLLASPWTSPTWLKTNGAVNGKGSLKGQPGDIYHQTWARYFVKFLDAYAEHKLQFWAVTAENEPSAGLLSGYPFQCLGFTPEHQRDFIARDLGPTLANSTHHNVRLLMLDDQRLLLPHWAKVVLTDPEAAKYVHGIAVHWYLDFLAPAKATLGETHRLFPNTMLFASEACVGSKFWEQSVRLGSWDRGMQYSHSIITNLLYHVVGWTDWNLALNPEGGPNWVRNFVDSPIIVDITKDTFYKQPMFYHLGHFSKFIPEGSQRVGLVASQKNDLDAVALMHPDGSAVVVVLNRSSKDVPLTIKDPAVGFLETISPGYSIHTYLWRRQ

[3] = target: T1, Lysosomal acid glucosylceramidase; test: Inhibition of wild type glucocerebrosidase in human spleen homogenate using 4-methylumbellifereno-Glc as substrate incubated for 5 mins prior to substrate addition measured after 20 mins by fluorimetric analysis; assay type: tissue-based

SMILES	IC50 [1] [nM]	IC50 [2] [nM]	IC50 [3] [nM]
CCc1nnc(NC(=O)c2ccc(NS(=O)(=O)c3ccccc3)cc2)s1	1600	100	3200
Cc1cc(N2CCOCC2)nc2ccc(NC(=O)C3CCCCC3)cc12	560	30	2200
COc1ccc(Cl)cc1Nc1nc(NCCO)nc(N2CCCC2)n1	11000	400	7900
